This note sets out measurements from ChEMBL document CHEMBL2346572, “Discovery of AZD3514, a small-molecule androgen receptor downregulator for treatment of advanced prostate cancer” (Bioorg Med Chem Lett, 2013).

Chains of the proteins cited; added tags and fusions are not shown. Lines headed by an entry give the natural chain unless they say otherwise; changes in a name come on top.
UniProt P10275: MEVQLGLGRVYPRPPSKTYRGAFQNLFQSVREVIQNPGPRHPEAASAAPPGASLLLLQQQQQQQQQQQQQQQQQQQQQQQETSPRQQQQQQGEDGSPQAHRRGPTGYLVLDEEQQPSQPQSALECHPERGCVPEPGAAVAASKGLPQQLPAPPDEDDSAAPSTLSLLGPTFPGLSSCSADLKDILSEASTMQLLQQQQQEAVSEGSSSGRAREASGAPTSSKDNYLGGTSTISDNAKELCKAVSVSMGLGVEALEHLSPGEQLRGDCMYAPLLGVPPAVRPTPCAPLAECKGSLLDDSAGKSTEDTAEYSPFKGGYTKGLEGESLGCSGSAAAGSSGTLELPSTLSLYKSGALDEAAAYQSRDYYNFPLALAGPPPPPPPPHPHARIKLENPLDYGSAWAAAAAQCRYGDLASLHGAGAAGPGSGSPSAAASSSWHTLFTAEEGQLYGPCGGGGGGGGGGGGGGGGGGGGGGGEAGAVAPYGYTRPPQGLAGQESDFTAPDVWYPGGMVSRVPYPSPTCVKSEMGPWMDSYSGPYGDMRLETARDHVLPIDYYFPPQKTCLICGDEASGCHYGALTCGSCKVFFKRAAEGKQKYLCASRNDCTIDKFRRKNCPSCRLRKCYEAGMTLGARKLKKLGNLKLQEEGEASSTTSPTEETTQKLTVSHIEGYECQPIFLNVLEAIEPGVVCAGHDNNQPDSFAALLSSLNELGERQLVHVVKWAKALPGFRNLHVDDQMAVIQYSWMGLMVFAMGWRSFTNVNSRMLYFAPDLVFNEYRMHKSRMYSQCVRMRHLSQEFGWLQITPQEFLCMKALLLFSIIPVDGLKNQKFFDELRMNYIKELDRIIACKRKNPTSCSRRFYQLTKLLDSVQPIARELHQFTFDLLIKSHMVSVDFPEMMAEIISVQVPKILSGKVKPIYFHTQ

For the assay, the target named is Androgen receptor (Homo sapiens, UniProt P10275). The assay is classed as cell-based, LNCaP.

Structures are written as SMILES.

On to `Fc1ccc(CN2CCN(c3ccc4nnc(C(F)(F)F)n4n3)CC2)cc1`, for which the IC50 (as a rule, the concentration that inhibits the measured activity by half) is 1.58 µM.
